In patent publication EP0987250A1, “INDOLE DICARBOXYLIC ACID DERIVATIVES” (SHIONOGI & CO., LTD., priority 1997, dated 1998):

Molecular target: T1, human sPLA2 (Homo sapiens, UniProt P14555)
T1 sequence (P14555 21-144): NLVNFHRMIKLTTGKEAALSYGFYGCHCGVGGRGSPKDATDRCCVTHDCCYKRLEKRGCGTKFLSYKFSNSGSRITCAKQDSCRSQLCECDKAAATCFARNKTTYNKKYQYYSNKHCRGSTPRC
Assay: In vitro test for sPLA2-inhibitory action by PC/DOC method
Assay type: biochemical
Conditions: PC/DOC = 1 mM/3 mM; Tris buffer 50 mM, pH 8.0; 40°C for 30 minutes; oleic acid measured by HPLC
Experimental: The inhibitory activity against sPLA2 (secretory PLA2) was determined according to the method of Schädlich, H. R., Büchler, M. et al. described in J. Clin. Chem, Chin. Biochem. 25: 505-609 (1987).
A 50 mM solution of 1-palmitoyl-1-oleoyl-sn-glycero-3-phosphatidylcholine in chloroform (PC) was used as a substrate. A 150 mM solution of sodium deoxycholate in methanol (DOC) was used as a surface-active agent
For each of test compounds (compounds (10) and (11)) were used 2 µl each of the substrate and the surface-active agent. First, the substrate and the surface-active agent were transferred into an Eppendorf tube and the solvent was evaporated by applying a nitrogen stream. Then, the tube was placed in a desiccator and evacuated with a pump to complete dryness. […]
To a test compound solution were added the substrate solution and the buffer solution for measurement prepared as described above and the resulting mixture was stirred to mix. […] HPLC analysis was carried out under the following analysis conditions: Column: Supersphere ^R60 RP-8 (Merck & Co.) Mobile: Phase: Acetonitrile : Distilled water (93:7) Detection: Absorbance at 254 nm
The inhibitory activity of the compound was calculated from the amount of oleic acid thus-measured. The sPLA2-inhibitory activity for each of the compounds was determined by the above-described method. […]

Compound `CCc1c(C(=O)C(N)=O)c2c(OCC(=O)O)cccc2n1Cc1ccccc1` [Compound 21, reference compound] has an IC50 of 13.6 nM.
